## Measured melting point values of organic chemicals

Values as listed in the OPERA 2.9 repository of K. Mansouri.

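OPERA's authors assembled the values from existing databases and did not measure them anew. The files give a single number for a compound and property, which may rest on several reports. Conditions of the individual experiments are not part of the data. A value may pool stereoisomers or salt forms, and the file does not say which form was measured. Unmarked limits or estimates from the upstream databases cannot be ruled out.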

The melting point is given in degrees Celsius. Cells with "n/a" have no entry in this list.

| mp (°C) | compound | name |
|---|---|---|
| 276 | CC(=O)Oc1ccc(-c2ccc(C(=O)O)cc2)cc1 | 4'-Acetoxy-biphenyl-4-carboxylic acid |
| 119 | O=C(O)CCc1ccc(-c2ccccc2)o1 | 3-(5-Phenyl-2-furyl)propanoic acid |
| 203 | Nc1n[nH]c(-c2cccs2)n1 | 5-(Thiophen-2-yl)-1H-1,2,4-triazol-3-amine |
| 175 | Cc1ccc2nc(C)c(C(=O)O)cc2c1 | 2,6-Dimethylquinoline-3-carboxylic acid |
| 90 | Cc1cc(N2CCOCC2)ccc1N | 2-Methyl-4-(morpholin-4-yl)aniline |
| 103 | ClCc1nc(-c2ccccn2)no1 | 2-[5-(Chloromethyl)-1,2,4-oxadiazol-3-yl]pyridine |
| 243 | O=C(O)c1cc(-c2ccc(Cl)s2)nc2ccccc12 | 2-(5-chlorothiophen-2-yl)quinoline-4-carboxylic acid |
| -5 | CC(C)=NO[Si](C)(ON=C(C)C)ON=C(C)C | n/a |
| 127 | Cc1csc(C/C(N)=N\O)n1 | (1E)-N'-Hydroxy(4-methyl-1,3-thiazol-2-yl)ethanimidamide |
| 126 | O=C(O)COc1cccc2cccnc12 | (Quinolin-8-yloxy)-acetic acid |
| 150 | Cc1nn(-c2ccccc2)c(C)c1NC(=O)CCl | 2-chloro-N-(3,5-dimethyl-1-phenyl-1H-pyrazol-4-yl)acetamide |
| 157 | CC(=O)[O-].COc1ccc2c(c1)=[O+]/C(=C1/N(C)c3ccc(S(C)(=O)=O)cc3N1C)C=2 | n/a |
| 220 | CCc1ccc(C(N)C(=O)O)cc1 (stereo not given) | 2-amino-2-(4-ethylphenyl)acetic Acid |
| 203 | Cc1nc2cc(Cl)ccc2c(=O)n1N | 3-amino-7-chloro-2-methylquinazolin-4(3H)-one |
| 197 | Cc1ccc(C(C)NC(=O)CCl)cc1C (stereo not given) | 2-chloro-N-[1-(3,4-dimethylphenyl)ethyl]acetamide |
| 101.5 | CCCCC(CC)C(=O)[O-].CCCCC(CC)C(=O)[O-].[Mg+2] (stereo not given) | Hexanoic acid, 2-ethyl-, magnesium salt (2:1) |
| -10 | C=CC(=C)CCC=C(C)C | Myrcene |
| 119 | C=CCn1c(N)c(C(=O)OCC)sc1=S | n/a |
| 142 | CS(=O)(=O)c1ccc(Cl)c(S(=O)(=O)Cl)c1 | 2-Chloro-5-(methanesulfonyl)benzene-1-sulfonyl chloride |
| 163 | Cc1ccc(C)c(NC(=S)NN)c1 | N-(2,5-Dimethylphenyl)hydrazinecarbothioamide |
| 170 | O=C([O-])CSSCC(=O)[O-].[NH4+].[NH4+] | Acetic acid, 2,2'-dithiobis-, ammonium salt (1:2) |
| 69 | Cc1ccccc1CCNC(=O)CCl | 2-Chloro-N-[2-(2-methylphenyl)ethyl]acetamide |
| -20.3 | CCCCCCCCCC(=O)OCCCC | Butyl decanoate |
| 186 | O=C(O)CN1C(=O)CNC1=O | (2,5-dioxoimidazolidin-1-yl)acetic acid |
| 215.5 | O=CNNc1nc(-c2ccc([N+](=O)[O-])o2)cs1 | Formic acid 2-[4-(5-nitro-2-furyl)-2-thiazolyl]hydrazide |
| 196 | CSc1ccccc1C(=O)N(NC(=O)c1ccccc1)C(C)(C)C | n/a |
| 99 | O=C(O)Cc1cc(=O)n(-c2ccccn2)[nH]1 | n/a |
| 255 | O=c1nc(Cc2ccccc2)[nH]c2ccccc12 | Glycosminine |
| 46 | O=S(=O)(Cl)c1ccc(Cl)cc1C(F)(F)F | 4-Chloro-2-(trifluoromethyl)benzene-1-sulfonyl chloride |
| 148 | Nc1nc(CN2CCOCC2)cs1 | 4-Morpholin-4-ylmethyl-thiazol-2-ylamine |
| 199 | COc1ccc(C(=O)NCC(=O)O)cc1OC | (3,4-Dimethoxy-benzoylamino)-acetic acid |
| 242 | N/N=C1\c2ccccc2C(=O)C1C(=O)C(c1ccccc1)c1ccccc1 (stereo partly drawn) | (3Z)-2-(Diphenylacetyl)-3-hydrazono-1-indanone |
| 86 | O=C(O)C1COc2ccc(Cl)cc2C1 (stereo not given) | 6-Chloro-3,4-dihydro-2H-1-benzopyran-3-carboxylic acid |
| 191 | Nc1nc2c(s1)COc1ccccc1-2 | 4H-chromeno[4,3-d]thiazol-2-amine |
| 217 | N=C(N)c1ccc(OCCCCCCOc2ccc(C(=N)N)cc2)cc1.O=S(=O)(O)CCO.O=S(=O)(O)CCO | Hexamidine diisethionate |
| 90 | O=C(O)CNC(=O)COc1ccccc1 | N-(phenoxyacetyl)glycine |
| 176 | Cn1nc2ccc(NC(=O)CCl)cc2n1 | 2-Chloro-N-(2-methyl-2H-benzotriazol-5-yl)acetamide |
| 114 | CCOC(=O)c1sc2ncnc(Cl)c2c1C | ethyl 4-chloro-5-methylthieno[2,3-d]pyrimidine-6-carboxylate |
| 74.5 | COc1ccc(F)c(O)c1F | 2,6-Difluoro-3-methoxyphenol |
| 145 | CC(=O)O[C@H](CC(=O)[O-])C[N+](C)(C)C | Acetyl-L-carnitine |
| 150 | Cc1cn2c(CO)c(C)nc2s1 | (2,6-Dimethylimidazo[2,1-b][1,3]thiazol-5-yl)methanol |
| 126 | CCn1c(N)cc(=O)[nH]c1=O | 6-Amino-1-ethylpyrimidine-2,4(1H,3H)-dione |

Again, the 6 entries with the lowest mp:

{"smiles": "CCCCCCCCCC(=O)OCCCC", "name": "Butyl decanoate", "mp (°C)": "-20.3"}
{"smiles": "C=CC(=C)CCC=C(C)C", "name": "Myrcene", "mp (°C)": "-10"}
{"smiles": "CC(C)=NO[Si](C)(ON=C(C)C)ON=C(C)C", "mp (°C)": "-5"}
{"smiles": "O=S(=O)(Cl)c1ccc(Cl)cc1C(F)(F)F", "name": "4-Chloro-2-(trifluoromethyl)benzene-1-sulfonyl chloride", "mp (°C)": "46"}
{"smiles": "Cc1ccccc1CCNC(=O)CCl", "name": "2-Chloro-N-[2-(2-methylphenyl)ethyl]acetamide", "mp (°C)": "69"}
{"smiles": "COc1ccc(F)c(O)c1F", "name": "2,6-Difluoro-3-methoxyphenol", "mp (°C)": "74.5"}